Results reported in patent US20110151484A1, “hERG MUTANTS AND USES THEREOF” (priority 2008, published 2011).

Amino acid sequences for entries named in this document (tags omitted).
UniProt Q12809, whole entry N588K: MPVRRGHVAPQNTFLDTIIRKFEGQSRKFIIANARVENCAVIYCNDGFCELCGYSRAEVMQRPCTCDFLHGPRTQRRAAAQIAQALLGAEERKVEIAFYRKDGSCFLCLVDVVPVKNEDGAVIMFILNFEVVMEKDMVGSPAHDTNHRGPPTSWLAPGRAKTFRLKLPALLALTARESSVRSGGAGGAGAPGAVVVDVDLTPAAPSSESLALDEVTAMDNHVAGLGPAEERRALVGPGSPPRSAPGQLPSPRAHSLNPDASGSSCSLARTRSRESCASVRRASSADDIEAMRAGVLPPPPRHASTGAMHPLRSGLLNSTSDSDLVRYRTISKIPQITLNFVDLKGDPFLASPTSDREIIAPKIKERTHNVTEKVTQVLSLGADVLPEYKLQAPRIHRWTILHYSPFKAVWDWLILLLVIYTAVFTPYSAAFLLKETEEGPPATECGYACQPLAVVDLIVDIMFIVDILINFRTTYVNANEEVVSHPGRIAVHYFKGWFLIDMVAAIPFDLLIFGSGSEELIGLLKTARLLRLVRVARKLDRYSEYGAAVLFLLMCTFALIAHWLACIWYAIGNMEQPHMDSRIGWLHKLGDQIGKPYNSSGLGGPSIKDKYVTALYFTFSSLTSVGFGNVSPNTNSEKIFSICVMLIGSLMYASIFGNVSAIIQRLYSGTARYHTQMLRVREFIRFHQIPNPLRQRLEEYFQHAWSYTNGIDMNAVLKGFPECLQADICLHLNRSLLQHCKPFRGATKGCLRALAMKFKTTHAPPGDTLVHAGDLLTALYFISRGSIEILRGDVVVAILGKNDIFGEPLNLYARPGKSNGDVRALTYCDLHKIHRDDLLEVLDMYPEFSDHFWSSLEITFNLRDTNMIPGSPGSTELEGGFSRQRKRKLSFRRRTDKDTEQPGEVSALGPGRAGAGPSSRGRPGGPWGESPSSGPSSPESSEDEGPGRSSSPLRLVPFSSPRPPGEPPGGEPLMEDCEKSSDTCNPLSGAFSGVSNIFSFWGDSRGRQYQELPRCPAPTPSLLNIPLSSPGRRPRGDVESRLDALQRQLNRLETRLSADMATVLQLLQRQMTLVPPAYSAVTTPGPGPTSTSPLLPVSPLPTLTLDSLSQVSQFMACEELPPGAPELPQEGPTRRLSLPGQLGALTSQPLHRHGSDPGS
UniProt Q12809, whole entry N588E: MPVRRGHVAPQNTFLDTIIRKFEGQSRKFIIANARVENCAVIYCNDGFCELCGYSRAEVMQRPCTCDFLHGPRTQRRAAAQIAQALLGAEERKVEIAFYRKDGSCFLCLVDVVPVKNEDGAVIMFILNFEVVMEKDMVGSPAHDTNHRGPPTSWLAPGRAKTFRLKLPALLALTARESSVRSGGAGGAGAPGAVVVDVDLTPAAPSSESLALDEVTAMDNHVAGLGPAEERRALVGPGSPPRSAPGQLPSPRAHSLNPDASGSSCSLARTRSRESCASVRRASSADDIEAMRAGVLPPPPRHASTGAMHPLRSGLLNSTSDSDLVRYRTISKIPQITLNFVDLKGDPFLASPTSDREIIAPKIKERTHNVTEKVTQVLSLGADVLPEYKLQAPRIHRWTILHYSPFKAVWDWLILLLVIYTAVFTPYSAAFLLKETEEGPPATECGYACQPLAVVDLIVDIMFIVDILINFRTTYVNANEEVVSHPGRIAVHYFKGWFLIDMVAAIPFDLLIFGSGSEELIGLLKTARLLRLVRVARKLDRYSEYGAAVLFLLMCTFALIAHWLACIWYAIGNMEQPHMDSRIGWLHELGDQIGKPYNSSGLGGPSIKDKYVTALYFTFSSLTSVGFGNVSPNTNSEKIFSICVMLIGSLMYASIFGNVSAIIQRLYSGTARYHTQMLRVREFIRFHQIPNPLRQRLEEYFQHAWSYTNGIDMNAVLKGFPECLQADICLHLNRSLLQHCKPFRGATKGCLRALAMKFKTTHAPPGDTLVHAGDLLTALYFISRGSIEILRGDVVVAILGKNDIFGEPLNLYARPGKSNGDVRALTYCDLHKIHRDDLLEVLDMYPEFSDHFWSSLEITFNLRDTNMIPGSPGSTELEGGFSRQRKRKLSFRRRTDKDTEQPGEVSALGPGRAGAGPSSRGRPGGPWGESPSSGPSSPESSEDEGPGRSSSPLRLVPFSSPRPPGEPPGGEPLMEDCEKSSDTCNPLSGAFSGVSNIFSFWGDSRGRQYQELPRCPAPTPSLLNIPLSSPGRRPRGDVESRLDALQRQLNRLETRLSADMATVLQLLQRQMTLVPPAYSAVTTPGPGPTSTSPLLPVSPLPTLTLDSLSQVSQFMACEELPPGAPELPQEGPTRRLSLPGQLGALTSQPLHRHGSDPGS

Legend:
[1] = target: N588K-hERG (Homo sapiens, UniProt Q12809, N588K); assay: cell-based
[2] = target: N588E-hERG (Homo sapiens, UniProt Q12809, N588E); assay: Whole-cell patch clamp drug block, N588E-hERG in CHO cells; conditions: Affinity (IC50) for N588E, block at end of 3 s step to +20 mV, mean ± SEM
[3] = target: WT-hERG (Homo sapiens, UniProt Q12809); assay: Whole-cell patch clamp drug block, WT-hERG in CHO cells
[4] = target: hERG inactivated state (Homo sapiens, UniProt Q12809)

SMILES	IC50 [1] [µM]	IC50 [2] [µM]	IC50 [3] [µM]	State preference of binding (in words) [4]
C1CCC(C(CC2CCCCN2)C2CCCCC2)CC1 (stereo not shown) [Perhexiline]	4.7 ± 1.7	5 ± 1.8	5.9 ± 0.9	–
COc1cc(N)c(Cl)cc1C(=O)NC1CCN(CCCOc2ccc(F)cc2)CC1OC (stereo not shown) [Cisapride]	–	–	–	marked preference for binding to the inactive state
